Laboratory results taken from patent US5262403A, “Glycosaminoglycan derivatives and their use as inhibitors of tumor invasiveness of metastatic profusion-II” (priority 1990, dated 1993).

Test system: B16-BL6 melanoma cells

Substance: N-resulfated N- and O-desulfated heparin
- incorporation of 3H-thymidine to B16 cells: no significant effects
